The series deals with the molecule itself. Briefly: thioflavin T.

Here are results for one protein from paper doi:10.1101/330266 (bioRxiv, 2019).

B1: Full-length (FL) P301L tau (2N4R; […]) (natural protein)
chain: not shown
As to B1, the binding result is “binds”.
